Measured values published in US20240425837A1 (Novo Nordisk, published 2024).

Test system: human plasma-derived coagulation Factor X (FX)

human plasma-derived coagulation Factor IXa (FIXa)
KM of FX activation by free FIXa (10 nM) with phospholipid vesicles, no compound: 0.282 µM
